# scFv variants of Ab-14 (light chain) against a SARS-CoV-2 spike peptide

Antigen: PDVDLGDISGINAS, a 14-residue peptide of the SARS-CoV-2 spike HR2 region.

Parent: Ab-14, a human scFv built as VH, three GGGGS repeats, VL. Only the CDRs of the light chain vary.
VH: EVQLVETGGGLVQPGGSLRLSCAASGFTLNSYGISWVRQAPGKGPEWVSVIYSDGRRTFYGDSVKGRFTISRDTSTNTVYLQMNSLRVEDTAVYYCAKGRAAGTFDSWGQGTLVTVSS
VL: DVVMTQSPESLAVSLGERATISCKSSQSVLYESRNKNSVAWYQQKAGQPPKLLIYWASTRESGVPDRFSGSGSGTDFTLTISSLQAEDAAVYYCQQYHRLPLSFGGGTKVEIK

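Phage display of a naive human antibody library on the peptide gave the parent. This is the validation round: designs drawn from the data on random variants, tested in the same kind of assay. Several design methods are mixed in this list. AlphaSeq pools MATa yeast showing the antibodies with MATalpha yeast showing the peptide. The frequency of each diploid, read from paired DNA barcodes, reflects how well the two displayed proteins bind. Read counts were normalised to the haploid input and turned into Kd by a linear fit to BCL2-family pairs of known affinity, for each replicate. The assay was run in six technical replicates.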

The parent's light chain CDRs are KSSQSVLYESRNKNSVA, WASTRES, QQYHRLPLS; each variant's own CDRs replace them letter for letter. The read-out is the apparent dissociation constant on a log10 scale (nM): the lower, the stronger. A mean of the replicates is given; it leaves out those without a signal. Where no diploid with the target was found in any replicate, the entry reads "no signal": below detection, most likely a poor binder, though not proof of it.

CDR-L1,CDR-L2,CDR-L3,"log10 Kd (nM), mean",seen in
KASQSVLYESRNKNSVA,YASTRES,QQYHRLPLS,1.13,6/6
KLSQSHLYESRNKNSVA,HASTRCS,QQYHRLPLS,-0.42,6/6
TISQLMNMGQFAINSVA,QANIRNS,QQYDRLPLI,1.11,6/6
KLEQSIGYESRNKNSVA,NASTRES,QQYHRLPLS,0.86,6/6
KSSQWVLYISRNKNSVA,TASTRES,QQYHRLPLS,no signal,0/6
KLSQSVPYESRNKNSVA,NASTRES,QQYHRLPLE,0.18,6/6
KSMQSVLYESRNKNSVA,EASTRES,QQYHRLPLS,-0.01,6/6
TIGQMFNGESRNRNSVA,QAQTRES,QSYDRLPLS,0.80,6/6
KLQMSEGYEQRNKNSVA,EASTRCD,QQYHRLPLS,0.60,6/6
KLQSLEQYESRNKNNVA,SASTRSS,QQYHRLPLS,-0.34,6/6
KLSISMLHESINKHSVA,EVRTREN,QQYDRLPLS,no signal,0/6
MISQLFNMGQFAINSVA,QASQRCE,QQYDRLPLL,2.02,6/6
MLSQMWAIGQKVSNSVA,QANMRFN,QQYDRLPLE,1.82,6/6
KVQQSELGLSRNKNSVA,NASKRES,QQYHRLPLS,0.22,6/6
KVPQSMLYESRNANNVA,NASQRES,QQYHRLPLS,-0.26,6/6
KLSQSVLYEERNSNSVA,NASQRES,QQYHRLPLS,0.44,6/6
IFSQSVLMGNLTKNSVA,QTSTRES,QQYHRLPLI,1.97,6/6
KLMNSTLYESRQKNSVA,WASTRES,QQYHRLPLS,2.46,6/6
KLQQSVEYESRNKNSVA,HASTRCS,QQYHRLPLS,-0.10,6/6
KLGLVTNGISFSKNSVA,EQSTREN,QQYDRLPLS,1.69,6/6
TLMQVGGYESNNHNSIA,DLRTRES,QQYHRLPLS,1.30,5/6
KSSQSFLYESRNKNSVA,GASTWES,QQYHALTLS,no signal,0/6
KFSYEYEMVNTAKESIA,DAHTVQM,QQYSRLPLA,0.35,6/6
MISQLINMGSFAINSVA,QASLRCN,QQYDRLPLM,0.01,6/6
KVSQQNLYEQRNFNNVA,NASYRES,QQYHRLPLS,-0.04,6/6
KMSQSVLYESRNKNSVA,TASTRES,QQYHRAPLS,no signal,0/6
KMSQSVDYESRNKNSVA,YASTRES,QQYHRLPLS,0.20,6/6
TISMSMNWLTRNKNSIA,EESTRDD,QQYDRLPLS,1.40,6/6

Further variants, results first:

"log10 Kd (nM), mean",seen in,CDR-L1,CDR-L2,CDR-L3
2.04,6/6,KLVNSTLYESRQKNSVA,WASTREV,QQYHRLPLS
0.43,6/6,KLSQLTGHMKMVKNNVA,EMVTREN,QQYNRLPLS
0.90,6/6,KQQQLGLGEERNFNSVA,HASTRIS,QQYHRLPLS
0.83,6/6,KSSQYVVYESRNKNSVA,DASTRES,QQYHRLPLS
0.47,6/6,HISYSMAHLSKNGNSVA,NQQTRES,QQYHRLPLS
1.11,6/6,KLTSITGTEKVRGNNVA,EMETRED,QQYNRLPLS
1.56,6/6,TISQLHNMGTFAINSVA,QASLRNE,QQYDRLPLI
0.87,6/6,TIGSTLMYGMRNRNNVA,EVSERLN,QQYDRLPLL
0.24,6/6,KYYPSYLYESRNKNAVA,QASTRES,QQYHLLPLS
0.17,6/6,KLSKMVMMGSRNKNSVA,SASTREE,QQYHRLPLS
0.21,6/6,KLQQSVLMGSRNKNSVA,EASTREV,QAYHRLPLS
0.10,6/6,SLMQSVLYESRNKNSVA,HASLREQ,QQYHRLPLS
0.29,6/6,IIEQGEYEQEQHKNAIA,DGHERMR,QQYYKLPLV
1.26,6/6,HMDLAVAGKTRDMNSIA,NTSARDA,QQYYRFPLI
0.21,6/6,MISDLTMYGSRNKNSVA,DLSTRGS,QQYHRLPLS
-0.26,6/6,KLSQSFLYESRNKNNVA,AASTRES,QQYHRLPLS
2.44,1/6,TLSQMSGVEAVKHNNVA,ENSTREQ,QQYDRLPLA
0.08,6/6,KISQSVEYESRDKNSVA,NASTRCQ,QQYHRLPLS
1.94,5/6,MIYGMDRELGRAANSIA,DNVTRYN,QQYERLPLS
0.12,6/6,KLMQSWGYESRNKNSVA,NASQRES,QQYHRLPLS
0.21,6/6,KLSDSVLLESRTKNSVA,NASTRES,QQYHRLPLS
-0.19,6/6,KTEVSELYESRNKNSVA,NASERES,QQYHRLPLS
0.65,6/6,KLQQMELYMSRNCNSVA,DASQRES,QQYHRLPLS
1.52,6/6,MMSQVSGSGTRHRNNVA,QTSTREP,QQYDRLPLV
1.72,1/6,HLSHMSGVESVKRNSVA,ENSTREQ,QQYDRLPLM
0.45,6/6,WLSMWEQSGTRGYSSVA,DTDVRMA,QQYFRLPLS
1.79,6/6,TLYGLSNSMSKNSNNVA,EMTTREK,QQYDRLPLI
no signal,0/6,MISQLMNMGQFAINSVA,QASLRYN,QQYDRLPLA

The 8 strongest on average among those seen in every replicate, once more:

CDR-L1,CDR-L2,CDR-L3,"log10 Kd (nM), mean",seen in
KLSQSHLYESRNKNSVA,HASTRCS,QQYHRLPLS,-0.42,6/6
KLQSLEQYESRNKNNVA,SASTRSS,QQYHRLPLS,-0.34,6/6
KVPQSMLYESRNANNVA,NASQRES,QQYHRLPLS,-0.26,6/6
KLSQSFLYESRNKNNVA,AASTRES,QQYHRLPLS,-0.26,6/6
KTEVSELYESRNKNSVA,NASERES,QQYHRLPLS,-0.19,6/6
KLQQSVEYESRNKNSVA,HASTRCS,QQYHRLPLS,-0.10,6/6
KVSQQNLYEQRNFNNVA,NASYRES,QQYHRLPLS,-0.04,6/6
KSMQSVLYESRNKNSVA,EASTRES,QQYHRLPLS,-0.01,6/6

Of ten entries with the parent sequence, four were seen in most replicates (averages 0.34 to 2.37), three in one and three in none, so single entries are noisy. The range of this assay differs from that of the first round, and the authors advise against merging the two. As a blank, each scFv also met three strains without target: over all light chain designs, 4% of these pairings were detected, typically at 2.64 and seldom below 1.59. In the paper, a design with two or fewer of six values counts as a poor binder.

Data: MIT Lincoln Laboratory AlphaSeq set, Li et al. 2023, doi:10.1038/s41467-023-39022-2, as distributed in FLAb.